Results as given in patent US11987807B2, “Isolated human lung progenitor cells and uses thereof” (THE GENERAL HOSPITAL CORPORATION, priority 2012, dated 2024).

System: mouse ESC-derived endoderm / anterior foregut endoderm cells
Details: BMP7 10 ng/ml
Source text: Dorsomorphin inhibits BMP signaling through the SMAD pathway while PD98059 inhibits MAPK signaling.
A recent report described a monolayer-based strategy using synergistic activation of Nodal and Wnt-β-catenin signaling as well as staged BMP4 inhibition to direct mouse ES cells towards an endoderm fate with high efficiency (Sherwood et al., 2011). This technology was adapted herein to generate definitive endoderm (DE) from mouse ES cells. […] Snoeck and colleagues reported that Noggin (a BMP inhibitor) synergized with SB431542 (a TGFβ inhibitor) to suppress a posterior endoderm fate (Cdx2+) in favor of an anterior endoderm fate (Sox2+) (Green et al., 2011). […] Endoderm was treated with combinations of Activin (a TGFβ agonist), A-83-01 (a TGFβ antagonist), BMP4, and Dorsomorphin (a BMP4 antagonist) for 2 days (FIG. 2B). The number of FoxA2+Sox2+ anterior endoderm cells was compared to the total number of FoxA2+ endoderm cells (FIG. 2B). The treated cells were further exposed to the BMP4/FGF2/WNT agonist cocktail for another 2 days to examine their competence to generate Nkx2.1+ cells (FIG. 2B). […] It was tested if their inhibition would enhance anteriorization together with a TGFβ inhibitor.
The expression of lung and other anterior cell fate lineage genes including FoxN1 (thymus), Pax8 (thyroid), and Pax9 and Tbx1 (pharyngeal pouch endoderm) was analyzed by real-time qPCR (Figure S4A). […]

B1: BMP2: BMP family member signalling through type I receptor ALK3 (protein, UniProt P12643 283-396, looked up)
Bone morphogenetic protein 2: QAKHKQRKRLKSSCKRHPLYVDFSDVGWNDWIVAPPGYHAFYCHGECPFPLADHLNSTNHAIVQTLVNSVNSKIPKACCVPTELSAISMLYLDENEKVVLKNYQDMVVEGCGCR
Question: For B1, which “induction of Nkx2.1+ cells from the anterior endoderm compared to BMP4” value is on record?
Answer: less efficient than BMP4
